# Measured affinities in a library of Ab-14 light chain variants

Antigen: PDVDLGDISGINAS, a 14-residue peptide of the SARS-CoV-2 spike HR2 region.

Each scFv is VH, a (GGGGS)3 linker, VL, as in the parent Ab-14, and differs from it in the CDRs of the light chain only.
VH: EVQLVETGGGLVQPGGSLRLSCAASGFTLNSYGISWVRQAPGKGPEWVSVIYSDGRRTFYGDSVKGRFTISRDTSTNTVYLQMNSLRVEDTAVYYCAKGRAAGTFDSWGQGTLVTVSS
VL: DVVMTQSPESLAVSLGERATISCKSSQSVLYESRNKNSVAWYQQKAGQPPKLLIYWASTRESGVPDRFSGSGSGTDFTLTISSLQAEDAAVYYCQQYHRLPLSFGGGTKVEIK

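The starting antibody came from a phage panning campaign against this peptide. In library AAYL50, one, two or three CDR residues were substituted; doubles and triples were drawn at random. The scFvs were displayed on barcoded MATa yeast, the peptide on MATalpha yeast. After mating in shaken culture at 30 °C for 16 h, diploids were selected and their barcode pairs sequenced. The ratio of observed to expected reads was calibrated, replicate by replicate, on BCL2-family standards whose Kd was known from biolayer interferometry. There are three technical replicates.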

The parent's light chain CDRs are KSSQSVLYESRNKNSVA, WASTRES, QQYHRLPLS; each variant's own CDRs replace them letter for letter. Scale: log10 of Kd in nM, estimated from mating counts; low values are strong binders. Averages over replicates are reported, and they cover detected replicates only. Where no diploid with the target was found in that replicate, the entry reads "ND": below detection, most likely a poor binder, though not proof of it. Three control strains display no target. For library AAYL50, 18% of the pairings with them gave a signal, with a median of 4.19 and one signal in twenty below 2.99, so weak values seen in few replicates may be background. Also given: how often the same scFv was detected with the empty control strains.

The variant KSSQSSLYESRNKNSRA | WASTRES | QQYHRLPLR showed ND, ND, ND (controls 0 of 9).
The variant KYSQSVLYASRNKNSVA | WASTRES | QQYHRLPGS showed 4.28, 2.62, 2.95 (mean 3.28; controls 4 of 9).
The variant KSSQAVLYESRNKSSVA | WASTRES | SQYHRLPLS showed 1.14, 1.22, 1.10 (mean 1.15; controls 0 of 9).
The variant KSSQSVLYESRNKNSVA | WISTRES | QQYHRLPLS showed 2.54, ND, 3.41 (mean 2.97; controls 0 of 9).
The variant KSCQSVHYESRNKNSMA | WASTRES | QQYHRLPLS showed 3.71, 3.55, 3.32 (mean 3.52; controls 0 of 9).
The variant KSSQSVLYESRNPNSVA | GASTRES | QPYHRLPLS showed 1.22, 1.48, 1.58 (mean 1.42; controls 4 of 9).
The variant KSSQSVLYESRNKAYVA | WASTRES | QQPHRLPLS showed ND, ND, ND (controls 0 of 9).
The variant KSSQSVLYEFRNKNSVA | WASTRES | QQYQRLPLS showed 2.23, 1.99, 1.85 (mean 2.02; controls 1 of 9).
The variant KSSQSVEYESRNDNSVR | WASTRES | QQYHRLPLS showed ND, 3.68, 5.56 (mean 4.62; controls 1 of 9).
The variant ASSQSVLYESRMKNSVA | WASTRES | QQYHRPPLS showed 2.01, 1.90, 2.42 (mean 2.11; controls 3 of 9).
The variant KSSQSVLYESRNKNTVA | WASTRVS | QQYTRLPLS showed 1.88, 1.54, 1.70 (mean 1.71; controls 0 of 9).
The variant KSSQSVLYESGNKDSVA | LASTRES | QQYHRLPLS showed 1.17, 1.31, 1.11 (mean 1.20; controls 0 of 9).
The variant WSSQSVLYESREKNSVA | WASTREQ | QQYHRLPLS showed 1.56, 1.61, 1.99 (mean 1.72; controls 1 of 9).
The variant KSSQSVLYESRSKNSVC | WFSTRES | QQYHRLPLS showed ND, ND, ND (controls 0 of 9).
The variant KSSQSVLYYSRNKNSVA | WASTNES | QQYHRLPLS showed 6.59, 4.99, 3.78 (mean 5.12; controls 5 of 9).
The variant KSNQSVAYESKNKNSVA | WASTRES | QQYHRLPLS showed 0.69, 1.07, 0.89 (mean 0.88; controls 4 of 9).
The variant KSSQSWLYESRNKNRVA | WASTRES | QQYHRLPLN showed 3.46, 2.37, 2.84 (mean 2.89; controls 0 of 9).
The variant KSSQSSLRESRNKNSVA | WASTRES | QQYHRLPLL showed ND, 3.27, 3.17 (mean 3.22; controls 0 of 9).
The variant KSSQSVLYESRDKNSVA | WFSTRES | DQYHRLPLS showed 4.95, ND, ND (controls 3 of 9).
The variant KSSQSVEYESRNKNSIA | WASTRES | QQYHRLPLS showed 0.30, 0.61, 0.48 (mean 0.46; controls 5 of 9).
The variant KSSQSVLYESRNTNSPA | WASTRES | QQYHRLPLS showed 4.76, 4.62, ND (mean 4.69; controls 3 of 9).
The variant KSSNSVLYESRNKNSSA | WASTRES | QQYHRLPLS showed 4.97, ND, 2.37 (mean 3.67; controls 2 of 9).
The variant KSSQSVLYESRAVNSVA | WASTRES | QQYHRLPKS showed 3.60, 3.74, 5.92 (mean 4.42; controls 6 of 9).
The variant KSSQSVLYESRNKNSVA | WASTREG | QGYHSLPLS showed 1.92, 1.89, 2.16 (mean 1.99; controls 2 of 9).
The variant ISSQSVLYESRNKNSVL | WASTRES | QQYHGLPLS showed ND, ND, ND (controls 0 of 9).
The variant KSAQSVLYESRNKNSVA | WASTRES | EQAHRLPLS showed 1.41, 1.20, 1.39 (mean 1.33; controls 5 of 9).
The variant KSSQSVLYESRLKNSVA | WASTVES | QQYHRLPLS showed ND, ND, ND (controls 0 of 9).
The variant KSSQSVLYESRGKNSVA | WASTRES | QTYHRLPLS showed 1.18, 1.24, 1.37 (mean 1.26; controls 4 of 9).
The variant KSSQSVLYESRNKNSVN | WESTRES | QPYHRLPLS showed ND, ND, ND (controls 1 of 9).
The variant KKSQSVLYESRNKNSVA | GASTRES | QQGHRLPLS showed -0.41, -0.04, -0.24 (mean -0.23; controls 4 of 9).
The variant KSSQSVLYENRNKNSVA | WASTRES | QQYNRLFLS showed 2.46, 1.89, 3.27 (mean 2.54; controls 0 of 9).

For reference, 2 entries of the list once more:

{"CDR-L1": "KKSQSVLYESRNKNSVA", "CDR-L2": "GASTRES", "CDR-L3": "QQGHRLPLS", "replicates, log10 nM": "-0.41, -0.04, -0.24", "log10 Kd (nM), mean": "-0.23", "signal with controls": "4 of 9"}
{"CDR-L1": "KSSQSVEYESRNKNSIA", "CDR-L2": "WASTRES", "CDR-L3": "QQYHRLPLS", "replicates, log10 nM": "0.30, 0.61, 0.48", "log10 Kd (nM), mean": "0.46", "signal with controls": "5 of 9"}

Parent in this assay: reference entry 0.65, copy in this library 1.68.

Values reported by Engelhart et al. 2022, doi:10.1038/s41597-022-01779-4 (FLAb copy).